Test results: patent US9133150B2, “O-nitro compounds and pharmaceutical compositions including same” (dated 2015)

Assays:
SCC VII tumor [1] = assay: Radiosensitization effect of GLYN and SG on SCC VII tumor growth; details: SG 400 mg/kg single dose + 7 Gy radiation; p<0.05 compared with radiation alone
SCC VII tumor [2] = assay: Chemosensitization effect of GLYN in combination with cis-platin on SCC VII tumor growth; details: CDDP 5 mg/kg single dose alone, s.c. SCC VII tumors in mice

| Substance | 4x tumor growth delay time (SCC VII tumor [1]) [days] | 4x TGT (tumor growth time: tumor volume quadrupling time) (SCC VII tumor [2]) [days] | TGD (tumor growth delay time: 4x TGT of treated tumors minus mean 4x TGT of control tumors) (SCC VII tumor [2]) [days] | TGD (tumor growth delay time: 4x TGT of treated tumors minus mean 4x TGT of control tumors) (SCC VII tumor [2]; listed as Cis-platin) [days] |
| --- | --- | --- | --- | --- |
| sodium glycididazole | 3.3 |  |  |  |
| cis-platin |  | 4.1 ± 0.4 | 1.1 ± 0.4 | 1.1 |
